This assay addresses B-cell lymphoma 6 protein (Homo sapiens, UniProt P41182). Kind of assay: Degradation of BCL6 in human OCI-Ly1 cells incubated for 2 hrs by MSD assay. It counts as cell-based. The procedure, abridged:
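Lysates were read by MSD sandwich immunoassay (goat capture, rabbit detection anti-BCL6, electrochemiluminescence). Signal was normalised to DMSO (high) and a reference degrader control at 2 μM (low). DC50 came from a four-parameter logistic fit, with Dmax reported.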

This passage reports EC50 results from ChEMBL document CHEMBL5154939, “Improved Binding Affinity and Pharmacokinetics Enable Sustained Degradation of BCL6 In Vivo” (J Med Chem, 2022).

The structures appear in SMILES notation.

By EC50 is commonly meant the concentration giving half of the maximal effect. `Cn1c(=O)n(CCC(C)(C)O)c2cc(Nc3nc(N4CCC(F)(F)C(CO)C4)ncc3Cl)ccc21` (racemic) had an EC50 of 80 nM.
